Read-outs that look alike come from different tables or passages of the source.
How the values were obtained:
LPAR1 receptor = LPAR1 receptor (Homo sapiens, UniProt Q92633); experiment: LPAR1 in vitro biological activity evaluation 2: HTRF cAMP kit (LANCE Ultra cAMP Kit) assay in CHO stable transfected cell line expressing the LPAR1 receptor; assay type: cell-based
[1] = target: hLPAR1 (human lysophosphatidic acid receptor 1, Accession No.: NM_001401.4) (Homo sapiens, UniProt Q92633); settings: read-out: LPAR1 inhibitory activity IC50, Table 1, FLIPR method, CHO-K1 cells overexpressing hLPAR1
[2] = read-out: LPAR1 inhibitory activity IC50, Table 2, tested form: free acid
[3] = read-out: LPAR1 inhibitory activity IC50, Table 2, tested form: free acid, single separated trans isomer
[4] = read-out: LPAR1 inhibitory activity IC50, Table 2, tested form: free acid, single separated cyclobutane
[5] = tested form: free acid, single separated trans isomer

By UniProt entry, the sequences of proteins in these tests, tags left out.
UniProt Q92633, whole entry: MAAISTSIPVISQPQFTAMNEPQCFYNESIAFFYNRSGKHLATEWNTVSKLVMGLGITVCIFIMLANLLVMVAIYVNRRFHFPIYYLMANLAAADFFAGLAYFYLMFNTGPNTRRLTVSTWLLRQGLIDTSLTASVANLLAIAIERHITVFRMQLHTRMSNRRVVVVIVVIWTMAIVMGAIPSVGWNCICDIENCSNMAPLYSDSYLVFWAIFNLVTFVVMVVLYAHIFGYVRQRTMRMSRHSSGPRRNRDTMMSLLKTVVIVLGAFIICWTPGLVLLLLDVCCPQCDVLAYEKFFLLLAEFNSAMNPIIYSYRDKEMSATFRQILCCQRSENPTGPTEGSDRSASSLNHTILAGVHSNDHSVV

SMILES: CCC[C@@H](C)OC(=O)Nc1c(-c2ccc(C#C[C@@H]3CC(F)(F)C[C@H]3C(=O)O)c(C)n2)nnn1C [compound 304]
- IC50 (LPAR1 receptor; [2]): 128 nM

SMILES: CCc1nc(-c2noc(C)c2NC(=O)O[C@H](C)CC(C)(F)F)ccc1C#CC1(CC(=O)O)CC1
- IC50 (LPAR1 receptor; [2]): 45.4 nM

SMILES: Cc1nc(-c2onc(C)c2NC(=O)O[C@H](C)CC(C)(F)F)ccc1C#C[C@H]1CC[C@@H]1C(=O)O
- IC50 (LPAR1 receptor; [3]): 66.9 nM

SMILES: Cc1noc(-c2ccc(C#CC3(CC(=O)O)CC3)c(C(F)(F)F)n2)c1NC(=O)O[C@H](C)CC(C)(F)F
- IC50 (LPAR1 receptor; [2]): 60.6 nM

SMILES: CCC(F)(F)C[C@@H](C)OC(=O)Nc1c(-c2ccc(C#C[C@@H]3CC[C@H]3C(=O)O)c(C)n2)nnn1C
- IC50 ([1]; tested form: free acid): 39 nM

SMILES: CCC[C@@H](C)OC(=O)Nc1c(-c2ccc(C#C[C@H]3CC[C@@H]3C(=O)O)c(C)n2)nnn1C
- IC50 ([1]; tested form: free acid): 27.7 nM

SMILES: CCC(F)(F)[C@@H](C)OC(=O)Nc1c(C)noc1-c1ccc(C#CC2(CC(=O)OC)CC(OC)C2)c(F)n1 (stereo partly shown)
- IC50 (LPAR1 receptor; read-out: LPAR1 inhibitory activity IC50, Table 2): 73.3 nM

SMILES: CCc1nc(-c2nnn(C)c2NC(=O)O[C@H](C)C(F)(F)CC)ccc1C#CC1(CC(=O)O)CC(OC)C1 (single isomer, unassigned) [462-B]
- IC50 (LPAR1 receptor; [4]): 51.3 nM

SMILES: CCC[C@@H](C)OC(=O)Nc1c(-c2ccc(C#C[C@@H]3CC[C@H]3C(=O)O)c(C)n2)nnn1C
- IC50 ([1]; tested form: free acid): 34.5 nM

SMILES: CCc1nc(-c2nnn(C)c2NC(=O)O[C@H](C)C(F)(F)CC)ccc1C#CC1(CC(=O)O)CC(OC)C1 (single isomer, unassigned) [462-A]
- IC50 (LPAR1 receptor; [4]): 35.3 nM

SMILES: Cc1onc(-c2ccc(C#CC3(CC(=O)O)CC3)c(C(F)(F)F)n2)c1NC(=O)O[C@H](C)CC(C)(F)F
- IC50 (LPAR1 receptor; [2]): 46.3 nM

SMILES: CCc1nc(-c2onc(C)c2NC(=O)O[C@H](C)CC(C)(F)F)ccc1C#CC1(CC(=O)O)CC1
- IC50 (LPAR1 receptor; [2]): 33.7 nM

SMILES: Cc1nc(-c2onc(C)c2NC(=O)O[C@H](C)CC(C)(F)F)ccc1C#C[C@@H]1CC[C@H]1C(=O)O [compound 340]
- IC50 (LPAR1 receptor; [3]): 67.1 nM

SMILES: CCc1nc(-c2onc(C)c2NC(=O)O[C@H](C)C(F)(F)CC)ccc1C#CC1(CC(=O)O)CC1
- IC50 (LPAR1 receptor; [2]): 109 nM

SMILES: Cc1noc(-c2ccc(C#CC3(OS(=O)(=O)O)CC3)c(F)c2)c1NC(=O)O[C@H](C)c1ccccc1Cl
- IC50 ([1]; tested form: free acid): 0.1 nM

SMILES: Cc1noc(-c2ccc(C#CC3(CC(=O)O)CC3)c(Cl)n2)c1NC(=O)O[C@H](C)CC(C)(F)F
- IC50 (LPAR1 receptor; [2]): 60 nM

SMILES: CCC[C@@H](C)OC(=O)Nc1c(-c2ccc(C#C[C@H]3CC(F)(F)C[C@@H]3C(=O)O)c(C)n2)nnn1C
- IC50 (LPAR1 receptor; [2]): 55 nM

SMILES: Cc1nc(-c2nnn(C)c2NC(=O)O[C@H](C)C23CC(C2)C3)ccc1C#C[C@@H]1CC(F)(F)C[C@H]1C(=O)O
- IC50 ([1]; tested form: free acid): 8.2 nM

SMILES: Cc1nc(-c2nnn(C)c2CNc2nccc(CCC(C)(F)F)n2)ccc1C#CC1(CC(=O)O)CC1
- IC50 [1]: 71.3 nM

SMILES: CCc1nc(-c2noc(C)c2NC(=O)O[C@H](C)C(F)(F)CC)ccc1C#CC1(CC(=O)O)CC1
- IC50 (LPAR1 receptor; [2]): 46.2 nM

SMILES: Cc1nc(-c2nnn(C)c2NC(=O)O[C@H](C)C23CC(C2)C3)ccc1C#C[C@H]1CC(F)(F)C[C@@H]1C(=O)O
- IC50 ([1]; tested form: free acid): 14.7 nM

SMILES: CCC(F)(F)[C@@H](C)OC(=O)Nc1c(-c2ccc(C#CC3(CC(=O)O)CC(OC)C3)c(C(F)(F)F)n2)nnn1C (single isomer, unassigned) [463-B]
- IC50 (LPAR1 receptor; [4]): 35.3 nM

SMILES: CCCCN(C)C(=O)OCc1c(-c2ccc(C#C[C@@H]3C[C@H]3C(=O)O)c(C)n2)nnn1C (relative stereo)
- IC50 ([1]; tested form: free acid, single separated trans enanti): 96.3 nM

SMILES: CCC[C@@H](C)OC(=O)Nc1c(-c2ccc(C#C[C@@H]3CC[C@H]3C(=O)O)c(F)n2)nnn1C
- IC50 [1, 5]: 37.5 nM

SMILES: CCC[C@@H](C)OC(=O)Nc1c(-c2ccc(C#C[C@H]3CC[C@@H]3C(=O)O)c(F)n2)nnn1C
- IC50 [1, 5]: 21 nM

SMILES: CCC(F)(F)[C@@H](C)OC(=O)Nc1c(-c2ccc(C#CC3(CC(=O)O)CC(OC)C3)c(C(F)(F)F)n2)nnn1C (single isomer, unassigned) [463-A]
- IC50 (LPAR1 receptor; [4]): 41.4 nM

SMILES: Cc1nc(-c2nnn(C)c2COC(=O)N(C)CC23CC(C2)C3)ccc1C#CC1(CC(=O)O)CC1
- IC50 ([1]; tested form: free acid): 77.4 nM

SMILES: Cc1noc(-c2ccc(C#CC3(N(C)S(=O)(=O)O)CC3)c(F)c2)c1NC(=O)O[C@H](C)c1ccccc1Cl
- IC50 ([1]; tested form: free acid): 13.6 nM

Reference: patent publication EP4755881A1 (Wuhan Createrna Science and Technology Co., Ltd., priority 2023, dated 2025)
